This is an account of results in BindingDB's records for doi:10.1016/s0165-6147(97)01043-2 (Roche Bioscience, 1997).

The chains behind the UniProt entries cited, without tags or fusion partners.
UniProt P32305, whole entry: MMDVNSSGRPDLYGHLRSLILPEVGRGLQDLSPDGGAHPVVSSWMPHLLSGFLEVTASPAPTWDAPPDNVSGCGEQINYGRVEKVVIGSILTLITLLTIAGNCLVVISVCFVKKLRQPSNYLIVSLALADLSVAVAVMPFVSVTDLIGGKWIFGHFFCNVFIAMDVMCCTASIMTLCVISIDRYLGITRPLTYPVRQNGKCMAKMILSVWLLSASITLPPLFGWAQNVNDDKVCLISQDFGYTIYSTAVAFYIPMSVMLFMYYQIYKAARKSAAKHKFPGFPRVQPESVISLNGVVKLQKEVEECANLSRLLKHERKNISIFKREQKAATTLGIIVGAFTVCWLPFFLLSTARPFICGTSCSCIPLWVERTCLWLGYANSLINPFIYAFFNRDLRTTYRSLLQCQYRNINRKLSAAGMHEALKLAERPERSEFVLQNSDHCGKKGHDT

In the assay the target is 5-hydroxytryptamine receptor 7 (Rattus norvegicus, UniProt P32305).

Usually Ki stands for the equilibrium dissociation constant of an inhibitor or competing ligand from its target. Higher therefore signals a looser hold on the target.

As for `COc1ccc2[nH]cc(CCN)c2c1` [tryptamine, 5-Methoxy], the affinity, expressed as Ki, was 1 nM.
